# From PubChem BioAssay
# miR-21 reporter: miR-21 reporter, rising signal | HeLa miR-21 FLuc reporter, luciferase, 48 h | Potency, µM (top dose mostly 38.3 µM), inactives show at the top dose reporter change, positive = more light | 340,000 tested, under 10 active | AID 2288; active = well fitted rising curve with a large enough effect; inconclusive = small, poorly fitted or top-dose-only effect; inactive = no such curve, though single readings can be large or run the other way;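 further: % of control where 0% means no effect; miR-21 action dims this reporter so a rising signal means less miR-21 action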
#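 HeLa miR-21-FLuc reporter line, endogenous miR-21; 2000 cells/well in DMEM/10% FBS; compound titration up to ~40uM final, 48 h, 37 degree Celsius; luciferase detection reagent, 15 min lysis, CCD luminescence.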
# TSG101-PTAP inh: blocks PTAP/TSG101 interaction to inhibit HIV-1 budding; Q99816; Fluorescence polarization, FITC-PTAP peptide / Tsg101 binding; Potency, µM (titrated, usually from 115 µM), inactives show top-dose activity change, negative = inhibition, hits mostly inhibitors; 340,000 tested, under 10 active; AID 493005; active = well fitted inhibition curve with a large enough effect in the main read-out, with a control signal flat, not every such curve was filed as active; inconclusive = small, poorly fitted or top-dose-only effect, or effect the other way, or a change in a side signal; inactive = no such curve, though single readings can be large or run the other way; also: potency is read from the fitted curve at half-maximal effect; % of control where 0% means no effect
#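 Fluorescence anisotropy tracks displacement of a FITC-tagged PTAP peptide (50 nM) from the Tsg101 binding domain (10 uM), following a 20 min room-temperature incubation at pH 7.5.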
# Nrf2 inh: inhibitors of Nrf2 signaling; A549 ARE-Fluc reporter, luciferase luminescence, 18-24 h; Potency, µM (doses to about 46 µM), inactives show at the highest dose activity change, negative = inhibition, most hits filed as inhibitors; 360,000 tested, 2.1% active; also: potency is read from the fitted curve at half-maximal effect; % is scaled to controls: 0 for no effect and ±100 for the full control effect; nearly all actives have a fitted effect of over 60% in size
#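 Nrf2 activity is the BugLite luminescence, read 15 min after reagent at room temperature, following CellTiter-Fluor cytotoxicity readout (30 min, 37C). Compound titrations were applied for 18-24 h to 5000 A549 ARE_Fluc cells/well in 5% FBS OPTI-MEM.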
# GRP78 ERSR act: ER stress response induction in glioma | 420,000 tested, 0.02% active | AID 602332 | U87-MG GRP78 promoter luciferase reporter, 16 h | Potency, µM, inactives show top-dose activation, most hits filed as activators; also: potency is read from the fitted curve at half-maximal effect; series mostly up to about 76 µM; % of control where 0% means no effect; nearly all actives have a fitted effect of over 35% in size
#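 Stably transfected U87-MG glioma cells carrying a GRP78-based luciferase sensor; 16 h compound incubation. Luminescence end-point read 10 min after Bright-Glo addition at room temperature.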
# Nrf2 activator: activates Nrf2 signaling; AREc32 ARE-luciferase reporter (MCF7-derived line), luminescence, 24 h; Potency, µM (doses to about 46.1 µM), for the others: at the top dose activation, usual class: activators; 410,000 tested, 0.31% active; AID 624171; also: potency is read from the fitted curve at half-maximal effect; % of control where 0% means no effect; nearly all actives have a fitted effect of over 65% in size
#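 Nrf2 activation is followed as ARE-luciferase induction in the AREc32 line after one day of compound treatment; luminescence is read with Steady-Glo.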
# A549 tox-1: kills or reduces viability of A549 cells in Nrf2 counter-screen; A549 ARE-Fluc cells, CellTiter-Fluor viability, 18-24 h; Potency, µM (series often up to 46 µM), for the others: at the top dose activity change, negative = cytotoxicity, most hits filed as inhibitors; 390,000 tested, 0.16% active; also: potency is read from the fitted curve at half-maximal effect; % is scaled to controls: 0 for no effect and ±100 for the full control effect
#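 A549 ARE-Fluc cells in 5% FBS OPTI-MEM, 5000 cells/well, rested 2 h then exposed to compounds in concentration-response for 18-24 h at 37 °C. Viability by CellTiter-Fluor fluorescence (Ex 405/Em 525) after 30 min; luciferase luminescence (BugLite, 15 min, RT) read afterwards.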
# FLuc enzyme inh: counter-screen for Nrf2 inhibitors: firefly luciferase enzyme inhibition | shares compounds with Nrf2 inh | purified firefly luciferase, luminescence inhibition | Potency, µM (top dose mostly 57.5 µM), inactives show at the top dose activity change, negative = inhibition, usual class: inhibitors | 1,400 tested, 4% active | AID 720522; also: potency is read from the fitted curve at half-maximal effect; % is scaled to controls: 0 for no effect and ±100 for the full control effect; nearly all actives have a fitted effect of over 65% in size
# A549 tox-2: A549 cytotoxicity, Nrf2 inhibitor counterscreen; shares compounds with Nrf2 inh; A549 ARE-Fluc cells, cytotoxicity counterscreen; Potency, µM (highest dose often 46.1 µM), inactives show at the top dose activity change, negative = cytotoxicity, hits mostly inhibitors; 1,400 tested, 2% active;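 also: potency is read from the fitted curve at half-maximal effect; cells exposed to compounds for 18 to 24 hours; % is scaled to controls: 0 for no effect and ±100 for the full control effect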
# ARE-Fluc inh: confirmation of Nrf2 inhibitors in A549 ARE reporter cells. shares compounds with Nrf2 inh. A549 ARE-firefly luciferase reporter, luminescence. 1,400 tested, 74% active. Potency, µM (top dose mostly 46.1 µM), for the others: at the highest dose activity change, negative = inhibition, most hits filed as inhibitors; also: potency is read from the fitted curve at half-maximal effect; % is scaled to controls: 0 for no effect and ±100 for the full control effect; nearly all actives have a fitted effect of over 65% in size
# * = called active by the depositor; ? = inconclusive; · = not tested or not shown. This is a sample that favours compounds with a hit; in the whole collection about 2.1% have one here. Unless noted, calls follow the shape of the dose curve; as a rule, active = well fitted curve in the direction sought with a large enough effect; inconclusive = small, poorly fitted or top-dose-only effect, or another doubt; inactive = no such curve, though single readings can be large; an effect the other way counts as inactive or inconclusive.
SMILES,miR-21 reporter,TSG101-PTAP inh,Nrf2 inh,GRP78 ERSR act,Nrf2 activator,A549 tox-1,others
O=c1[nH]c(=S)[nH]c(O)c1N=Nc1ccc(S(=O)(=O)N2CCc3ccccc32)cc1,-13%,2%,20%,5%,8.9µM*,-4%,
O=c1[nH]c(=S)[nH]c(O)c1N=Nc1ccc(SC(F)F)cc1,-36%,?,5%,-7%,16µM*,0%,
CC(=O)OC(C)(C)/C=C/C(=O)C(C)(O)C1C(O)CC2(C)C3CC=C4C(CC(O)C(=O)C4(C)C)C3(C)C(=O)CC12C (stereo not drawn),·,-2%,?,-12%,-1%,2.9µM*,
Cc1ccc(S(=O)(=O)NP(=O)(Oc2ccccc2)Oc2ccccc2)cc1,-4%,-5%,1%,-1%,-1%,0%,
Cc1ccc(C)c(NP(=O)(Oc2ccccc2)Oc2ccccc2)c1,28%,-9%,21µM*,-1%,0%,?,
CC1=C(O)C(=O)C=C2C1=CC=C1[C@]2(C)CC[C@@]2(C)C3C[C@](C)(C(=O)O)CC[C@@]3(C)CC[C@@]12C (stereo partly drawn),·,·,·,-12%,·,·,
CCOP(=O)(OCC)c1nc(-c2ccc(Cl)cc2)oc1NCc1ccccc1,0%,-4%,?,8%,7%,-20%,
CCCOP(=O)(OCCC)c1nc(-c2ccccc2)oc1NCc1ccccc1,-10%,4%,18µM*,-1%,7%,?,
Nc1c(C(=O)OC2CCCCC2)c2nc3ccccc3nc2n1CC1CCCO1 (stereo not drawn),0%,-3%,23µM*,-3%,0%,-19%,
CC(C)OC(=O)c1c(N)n(CC2CCCO2)c2nc3ccccc3nc12 (stereo not drawn),6%,-2%,-3%,3%,0%,17%,
Cc1ccc2c(c1)C(c1ccccc1)=NCC(=O)N2C,·,-1%,9.2µM*,-1%,3%,-3%,
Nc1c(C(=O)NCc2ccco2)c2nc3ccccc3nc2n1Cc1ccc(F)cc1,23%,-7%,-16%,-4%,18µM*,-21%,
Nc1c(C(=O)NCc2ccco2)c2nc3ccccc3nc2n1Cc1ccccc1,24%,-2%,-6%,-4%,16%,?,
COc1cc(=O)n2c(c1C(=O)N(C)Cc1nonc1C)CCN(C(=O)C1C(C)(C)C1(C)C)CC2,·,·,·,-3%,·,·,
COc1ccc(NC(=O)c2c(C)nn(Cc3ccccc3Cl)c2Cl)cc1Cl,-6%,-7%,-4%,-3%,-1%,9%,

# Quoted at random: two compounds from above.
SMILES,miR-21 reporter,TSG101-PTAP inh,Nrf2 inh,GRP78 ERSR act,Nrf2 activator,A549 tox-1,others
CC1=C(O)C(=O)C=C2C1=CC=C1[C@]2(C)CC[C@@]2(C)C3C[C@](C)(C(=O)O)CC[C@@]3(C)CC[C@@]12C (stereo partly drawn),·,·,·,-12%,·,·,
CCCOP(=O)(OCCC)c1nc(-c2ccccc2)oc1NCc1ccccc1,-10%,4%,18µM*,-1%,7%,?,

# (cont.)
SMILES,miR-21 reporter,TSG101-PTAP inh,Nrf2 inh,GRP78 ERSR act,Nrf2 activator,A549 tox-1,others
COc1ccc2c(c1)CCc1c(C(=O)Nc3c(C)nn(Cc4ccccc4C)c3C)noc1-2,23%,·,18µM*,-4%,4%,-6%,
COc1ccc(OC)c(C[C@H](C)N)c1,·,·,·,-3%,·,·,
N=c1c2c(n(Cc3ccc(Cl)cc3Cl)c3c1CCC3)CCCC2,?,-11%,13µM*,1%,7%,?,
Cc1nn(Cc2ccc(Cl)cc2Cl)c(Cl)c1C(=O)O,1%,-16%,12%,-1%,5%,22%,
CC[C@H](OC(C)=O)C(C[C@H](C)NC)(c1ccccc1)c1ccccc1,·,·,·,-6%,·,·,
CCCCn1c(O)c(C(CC)=Nc2ccc(OCC)cc2)c(=O)[nH]c1=O,-5%,-7%,13µM*,0%,-1%,1%,
CCCCn1c(O)c(C(CC)=Nc2ccc(OC)cc2OC)c(=O)[nH]c1=O,-2%,-7%,?,3%,0%,-16%,
CCOC(=O)CCN(SN(C)C(=O)Oc1cccc2c1OC(C)(C)C2)C(C)C,·,·,·,-5%,·,·,
COc1cccc(CN2CCN(Cc3cccc(F)c3)CC2)c1,2%,-3%,-6%,-4%,-1%,2%,
COc1ccc(CN2CCN(c3ncnc4sc5c(c34)CCCC5)CC2)cc1F,-1%,·,10µM*,·,3%,-19%,
O=C(c1ccco1)N1CCN(C(=O)c2ccc(COc3ccc(Cl)cc3Cl)o2)CC1,·,-13%,26µM*,-3%,7%,-25%,
CCc1cc(OC)c(CC(C)N)cc1OC (stereo not drawn),·,·,·,-3%,·,·,
Cc1cc(NC(=O)c2cc(-c3cccc(Cl)c3)on2)nn1Cc1ccc(Cl)cc1,-1%,·,2.6µM*,-3%,-1%,-3%,FLuc enzyme inh=-2%;A549 tox-2=-14%;ARE-Fluc inh=21µM*
C[C@@H]1C(=O)O[C@@H]2C[C@]34[C@H]5C[C@@H](C(C)(C)C)[C@@]36[C@@H](OC(=O)[C@@H]6O)O[C@@]4(C(=O)O5)[C@@]12O,·,·,·,-2%,·,·,
O=C1c2ccccc2C(=O)c2ccccc21,·,·,·,-1%,·,·,
c1ccc2c(c1)[IH]c1ccccc1-2,·,2%,0.23µM*,-6%,-3%,9.2µM*,FLuc enzyme inh=2%;A549 tox-2=-3%;ARE-Fluc inh=?
CC(C)C[C@H](NC(=O)[C@H](CC(C)C)NC(=O)[C@H](Cc1ccccc1)NC(=O)[C@@H](N)Cc1ccc(O)cc1)C(=O)N[C@@H](CCCN=C(N)N)C(=O)N[C@@H](CC(N)=O)C(=O)N1CCC[C@H]1C(=O)O,·,·,·,-6%,·,·,
CC(=O)OC1CC[C@]2(C#N)[C@H]3CC[C@]4(C)[C@H](C5C=CC(=O)O5)CCC4(O)C3CCC2(O)C1 (stereo partly drawn),?,-5%,5.2µM*,-8%,-5%,-15%,FLuc enzyme inh=-2%;A549 tox-2=?;ARE-Fluc inh=6.5µM*
CO[C@@H](COC(N)=O)C1=C(N2CC2)C(=O)C(C)=C(N2CC2)C1=O,·,·,·,-11%,·,·,
COC(COC(N)=O)C1=C(N2CC2)C(=O)C(C)=C(N2CC2)C1=O (stereo not drawn),·,-5%,2.1µM*,-7%,3%,10µM*,FLuc enzyme inh=-2%;A549 tox-2=-11%;ARE-Fluc inh=0.058µM*
CC1=CC2OC3CC4OC(=O)C=CC=CC(C(C)O)OCC(O)C(C)CC(=O)OCC2(CC1O)C4(C)C31CO1 (stereo not drawn),·,-8%,0.058µM*,-6%,-2%,·,FLuc enzyme inh=-13%;ARE-Fluc inh=0.052µM*

# 3 entries already listed, sorted by number of heavy atoms, falling:
SMILES,miR-21 reporter,TSG101-PTAP inh,Nrf2 inh,GRP78 ERSR act,Nrf2 activator,A549 tox-1,others
CC1=CC2OC3CC4OC(=O)C=CC=CC(C(C)O)OCC(O)C(C)CC(=O)OCC2(CC1O)C4(C)C31CO1 (stereo not drawn),·,-8%,0.058µM*,-6%,-2%,·,FLuc enzyme inh=-13%;ARE-Fluc inh=0.052µM*
CC(=O)OC1CC[C@]2(C#N)[C@H]3CC[C@]4(C)[C@H](C5C=CC(=O)O5)CCC4(O)C3CCC2(O)C1 (stereo partly drawn),?,-5%,5.2µM*,-8%,-5%,-15%,FLuc enzyme inh=-2%;A549 tox-2=?;ARE-Fluc inh=6.5µM*
c1ccc2c(c1)[IH]c1ccccc1-2,·,2%,0.23µM*,-6%,-3%,9.2µM*,FLuc enzyme inh=2%;A549 tox-2=-3%;ARE-Fluc inh=?
